Source: ChEMBL document CHEMBL3400103, “Synthesis and biological evaluation of novel HIV-1 protease inhibitors using tertiary amine as P2-ligands” (Bioorg Med Chem Lett, 2015)

Target: Protease (Human immunodeficiency virus 1, UniProt Q9YQ12)
Test: Inhibition of HIV1 protease expressed in Escherichia coli incubated for 20 to 30 mins at room temperature using (Arg-Glu(EDANS)-Ser-Gln-Asn-Tyr-Pro-Ile-Val-Gln-Lys(DABCYL)-Arg) substrate by FRET method

IC50: 0.88 nM
SMILES: CC(C)(C)NC(=O)[C@@H]1CN(Cc2cccnc2)CCN1C[C@@H](O)C[C@@H](Cc1ccccc1)C(=O)N[C@H]1c2ccccc2C[C@H]1O
